From PubChem BioAssay AID2472 (National Center for Advancing Translational Sciences (NCATS), 2010) come the findings set out here.

SMILES strings stand for the structures. The entries are a selection whose mix differs from that of the whole data set. The source made the active and inactive calls. Rule as the data show it: active = activity change below about -30%; inactive = the rest, inconclusive results apart.
% is scaled to controls: 0 for no effect and ±100 for the full control effect.

The assay in a line: qHTS Assay for Inhibitors of Fructose-1,6-bisphosphate Aldolase from Giardia Lamblia: Coupling assay counterscreen. As to conditions: coupling enzyme system counterscreen, AmpLite Red fluorescence; at 58.2 µM (top of the series). An excerpt: MLPCN Grant: MH085699-01 Assay Provider: Osnat Herzberg, University of Maryland NCGC Assay Overview: The objective of this project is to obtain compounds that inhibit Giardia lamblia growth. G. lamblia is a human pathogen which afflicts impoverished nations; it is the most common cause of outbreaks of diarrhea in the United States. During the course of our study of potential drug targets in Giardia, we have identified the Class II (Zn2+ functions in electrophilic catalysis) fructose-1,6-bisphosphate aldolase (FBPA) as an excellent candidate for drug targeting. FBPA is a key glycolytic pathway enzyme, essential for G. lamblia survival. The human FBPA belongs to the Class I aldolases, which have a different substrate binding site structure and a radically different catalytic mechanism (employing a lysine-Schiff base intermediate). Therefore, affinity-based or mechanism-based inhibitors of the Giardia FBPA are expected not to interfere with the catalytic function of the human FBPA. A glyceraldehyde-3-phosphate dehydrogenase/triose phosphate isomerase/NAD/arsenate coupled assay was adapted to the 1536-well HTP format for use in the primary screen. This was done by coupling it to a diaphorase/resazurin/resorufin reaction that can be monitored by fluorescence (excitation, 544 nm; emission, 590 nm). Compounds identified in this screen will be further evaluated by coupling the […]/triose phosphate isomerase/NADH assay to a phenazine methosulfate/tetranitroblue tetrazolium color reaction. False positives due to the dehydrogenases and diaphorase inhibition will be eliminated, and selectivity assay will triage inhibitors of mammalian triose phosphate isomerase and the Class I FBPA. G. lamblia FBPA inhibitors identified by the in vitro analyses will be examined for growth inhibition of Giardia trophozoites, and for cytotoxicity in human cells. This assay specifically addresses whether activity observed in the primary screen (AID 2451) is related to inhibition of the coupling assay used, as opposed to inhibition of aldolase. Actives in this assay are considered inconclusive for activity against aldolase.
NCGC Assay Protocol: Step,Parameter,Value,Description 1,Coupling enzyme reagent,2 uL,glyceraldehyde-3-phosphate 2,Compound,23 nL,3.68 nM-57.5 uM final concentration 3,Time,10 min,RT Incubation 4,Substrate/detection Reagent,2 uL,Substrate + enzyme coupling system + AmpLite Red kit 5,Time,20 min,RT Incubation 6,Detector,525 nm/598 nm (Fluorescence),ViewLux Fluorescence Read (Read 1) Notes: 1,Medium-binding black solid-bottom Kalypsys plates. FRD or Kalypsys dispenser. 2,Compound Library (10 mM ,1:5 dilution). Pin-transferred for a [final] range of 3.68 nM-57.5 uM. 3,RT incubation 4,FRD or Kalypsys dispenser, 2 uL of reaction mixture. Bottle kept at 4C and covered in foil to protect from light. 5,RT incubation 6,ViewLux Protocol 1194; Excitation filter wheel A (525/20 Pol; BODIPY TMR FP), Emission filter wheel B (598/25 S; BODIPY TMR FP S). Keywords: Fructose-bisphosphate aldolase, FBPA , Giardia lamblia , Giardia, HTS, Inhibitors
As for `CCN(CC)CCCOC(=O)C(O)(c1ccccc1)c1ccccc1`, the activity change, negative = inhibition is inactive: 3.88%. In the case of `CCOC(=O)c1ccc(NP(C)(=O)Oc2ccccc2)cc1` (configuration not stated) it was inactive: -1.03%; in that of `Cc1ccc(NP(C)(=O)Oc2ccccc2)c(C)c1` (configuration not stated), inactive: 3.69%. In the case of `COc1ccccc1OP(C)(=O)Nc1ccc(C)cc1` (configuration not stated) it was inactive: 0.934%.

Regarding `COc1ccc(OP(C)(=O)Nc2cccc(F)c2)cc1` (configuration not stated), the activity change, negative = inhibition is inactive: -0.926%.

For `COc1ccccc1OP(C)(=O)Nc1cc(Cl)ccc1C` (configuration not stated), the activity change, negative = inhibition is inactive: 0.809%. In the case of `Cc1cc(C)cc(OP(C)(N)=O)c1` (configuration not stated) it was inactive: -1.17%; in that of `O=C(O)C1(O)c2ccccc2-c2ccccc21`, inactive: -0.245%. In the case of `Cc1cccc(C)c1OP(C)(N)=O` (configuration not stated) it was inactive: 0.903%; in that of `O=C(O)C(O)(c1ccccc1)c1ccccc1`, inactive: 0.191%; in that of `CC(C)(C)c1ccc(OP(C)(=O)Nc2ccc(SC(F)(F)F)cc2)cc1` (configuration not stated), inactive: -3.93%. The result for `O=[N+]([O-])c1ccc2c(c1)C=Nc1ccccc1O2` reads inactive: -16.1%.

Regarding `CP(=S)(Nn1cnnc1)Oc1ccccc1` (configuration not stated), the activity change, negative = inhibition is inactive: 1.68%.

On to `COc1ccccc1OP(C)(=O)Nc1ccccc1` (configuration not stated), for which the activity change, negative = inhibition was inactive: 2.49%.

`CP(=O)(Nc1ccccc1Br)Oc1ccccc1` (configuration not stated): the activity change, negative = inhibition was inactive: -2.75%. The result for `CCOP(C)(=S)SCC(=O)NC(C)C(=O)O` (configuration not stated) reads inactive: 5.72%. The result for `CCOC(=O)c1ccc(NP(C)(=O)Oc2ccc(OC)cc2)cc1` (configuration not stated) reads inactive: -0.289%; that for `CP(=O)(Nc1ccccn1)Oc1ccc(Cl)cc1` (configuration not stated), inactive: 2.51%.

As for `CP(=O)(Oc1ccccc1)OC(c1ccccc1)C(F)(F)F` (configuration not stated), the activity change, negative = inhibition was inactive: 0.352%. Take `Cc1cccc(C)c1OP(C)(=O)Nc1ccc(SC(F)(F)F)cc1` (configuration not stated): the activity change, negative = inhibition was inactive: -3.07%. As to `CP(=O)(Nc1ccc(SC(F)(F)F)cc1)Oc1ccc(Cl)cc1` (configuration not stated), the activity change, negative = inhibition is inactive: 3.08%. As for `Cc1cc(C)cc(OP(C)(=O)Nc2ccc(SC(F)(F)F)cc2)c1` (configuration not stated), the activity change, negative = inhibition is inactive: -1.89%. Regarding `CP(=O)(NC(=O)Nc1ccccc1)Oc1ccccc1` (configuration not stated), the activity change, negative = inhibition was inactive: 0.0857%. On to `CCc1ccc(OP(C)(=O)N2CCN(c3ccc([N+](=O)[O-])cc3)CC2)cc1` (configuration not stated), for which the activity change, negative = inhibition is inactive: 0.994%.

Take `Cc1nc2ccc3ccccc3c2s1.O=[N+]([O-])c1cc([N+](=O)[O-])c(O)c([N+](=O)[O-])c1`: the activity change, negative = inhibition was inactive: 13%.

As to `O=[N+]([O-])c1cc([N+](=O)[O-])c(-n2nnc3ccccc32)c([N+](=O)[O-])c1`, the activity change, negative = inhibition is inactive: 19.9%. In the case of `CC(C)N(CCCl)C(C)C` it was inactive: 0.671%. Consider `COc1ccccc1OP(C)(=O)Nc1c(C)cccc1C` (configuration not stated), for which the activity change, negative = inhibition is inactive: 0.482%.

Regarding `CN1CCCCC1COC(=O)C1(O)c2ccccc2CCc2ccccc21` (configuration not stated), the activity change, negative = inhibition is inactive: 2.99%. In the case of `CCCOc1ccc(NP(C)(=O)Oc2ccc(Cl)cc2)cc1` (configuration not stated) it was inactive: 1.68%. In the case of `CP(=O)(Nc1ccc(SC(F)(F)F)cc1)Oc1ccccc1` (configuration not stated) it was inactive: -1.87%; in that of `O=[N+]([O-])c1cc([N+](=O)[O-])c(Nc2nnnn2CCO)c([N+](=O)[O-])c1`, inactive: 0.13%; in that of `O=[N+]([O-])OCC(CO[N+](=O)[O-])(CO[N+](=O)[O-])CO[N+](=O)[O-]`, inactive: 0.0496%. The result for `CC1=NCCc2c1[nH]c1ccccc21.O=[N+]([O-])c1cc([N+](=O)[O-])c(O)c([N+](=O)[O-])c1` reads inactive: 8.62%; that for `Cc1cc(C)cc(OP(C)(=O)Nc2ccccn2)c1` (configuration not stated), inactive: -0.419%; that for `CP(=O)(Nc1cccc(Br)c1)Oc1ccccc1` (configuration not stated), inactive: -7.64%. Regarding `Cc1ccc(C)c(NP(C)(=O)Oc2ccccc2)c1` (configuration not stated), the activity change, negative = inhibition is inactive: -1.3%.

Turning to `COc1ccccc1OP(C)(=O)Nc1cccc(Br)c1` (configuration not stated), the activity change, negative = inhibition is inactive: -0.19%.

In the case of `Cc1cc(C)cc(OP(C)(=O)Nc2ccc(C)cc2C)c1` (configuration not stated), the activity change, negative = inhibition is inactive: 5.5%.

For `CCOC(=O)c1ccc(NP(C)(=O)Oc2cc(C)cc(C)c2)cc1` (configuration not stated), the activity change, negative = inhibition was inactive: 3.91%. The result for `O=C(OCCN1CCN(CCOCc2ccccc2)CC1)C(O)(c1ccccc1)c1ccccc1` reads inactive: -0.279%; that for `CC(C)c1ccc(OP(C)(=O)Nc2ccc(SC(F)(F)F)cc2)cc1` (configuration not stated), inactive: -1.1%; that for `CP(=O)(Nc1ccccc1F)Oc1ccccc1` (configuration not stated), inactive: -0.69%. The result for `CCN(CC)CCCOC(=O)C(O)(c1ccccc1)C1CCCCC1` (configuration not stated) reads inactive: 3.36%. For the molecule `CCCCCOc1ccc(NP(C)(=O)Oc2ccc(Cl)cc2Cl)cc1` (configuration not stated), the activity change, negative = inhibition was inactive: -7.57%. Turning to `CP(=O)(Nc1ccccc1)Oc1ccc(F)cc1` (configuration not stated), the activity change, negative = inhibition is inactive: 0.178%.

Consider `COc1ccc(OP(C)(=O)Nc2ccc(SC(F)(F)F)cc2)cc1` (configuration not stated), for which the activity change, negative = inhibition was inactive: 0.435%. The result for `CCOC(=O)c1ccc(NP(C)(=O)Oc2ccc(F)cc2)cc1` (configuration not stated) reads inactive: -3.77%; that for `Cc1cc(-c2cccc3ccccc23)c(C)cn1.O=[N+]([O-])c1cc([N+](=O)[O-])c(O)c([N+](=O)[O-])c1`, inactive: 6.54%.

Take `O=[N+]([O-])c1ccc(OP2(=O)COCCO2)cc1` (configuration not stated): the activity change, negative = inhibition was inactive: 1.18%. In the case of `COc1ccc(OP(C)(=O)Nc2cccc(Br)c2)cc1` (configuration not stated) it was inactive: -1.78%; in that of `COc1ccc(NP(C)(=O)Oc2ccccc2OC)cc1` (configuration not stated), inactive: 1.45%; in that of `CN(C)CCOC(=O)C(O)(c1ccccc1)C1CCCCC1` (configuration not stated), inactive: 1.73%. The result for `CP(=O)(Nc1ccc2c(c1)OCCO2)Oc1ccccc1` (configuration not stated) reads inactive: 2.67%. In the case of `Cc1ccccc1NP(C)(=O)Nc1ccccc1C` it was inactive: 2.08%; in that of `CCN(CCCl)Cc1ccccc1C`, inactive: 0.3%; in that of `CP(=O)(Nc1ccc(SC(F)(F)F)cc1)Oc1ccc(F)cc1` (configuration not stated), inactive: -0.428%. As to `CCOP(C)(=S)SCC(=O)NC(C)(CC)C(=O)O` (configuration not stated), the activity change, negative = inhibition was inactive: 0.319%. The result for `COc1ccccc1OP(C)(=O)Nc1ccccc1Br` (configuration not stated) reads inactive: -1.03%; that for `CC(C)(C)c1ccc(OP(C)(=O)O)cc1`, inactive: 9.08%; that for `COc1ccc(OP(C)(=O)Nc2ccc(Br)cc2)cc1` (configuration not stated), inactive: 2.03%. As to `CCN(CC)CC(O)COC(=O)C(O)(c1ccccc1)C1CCCCC1` (configuration not stated), the activity change, negative = inhibition was inactive: -0.874%.

`CCc1ccc(OP(C)(=O)Nc2cccnc2)cc1` (configuration not stated): the activity change, negative = inhibition was inactive: 4.01%. On to `CP(=O)(Oc1ccccc1)N1CCOC1=O` (configuration not stated), for which the activity change, negative = inhibition was inactive: 3.17%. The result for `OCCSCCO` reads inactive: 3.57%; that for `O=C(OCCCN1CCCC1)C(O)(c1ccccc1)C1CCCCC1` (configuration not stated), inactive: 0.883%. In the case of `COc1ccccc1OP(C)(=O)Nc1c(C)n(C)n(-c2ccccc2)c1=O` (configuration not stated) it was inactive: 1.94%; in that of `C/C1=C2N=C(/C=C3N=C(/C(C)=C4\[N-][C@@](C)([C@H]5N=C1[C@@](C)(CCC(=O)NC[C@H](C)OP(=O)([O-])O[C@@H]1[C@H](O)[C@H](n6cnc7cc(C)c(C)cc76)O[C@@H]1CO)[C@@H]5CC(N)=O)[C@](C)(CC(N)=O)[C@H]4CCC(N)=O)[C@@](C)(CC(N)=O)[C@@H]\3CCC(N)=O)C(C)(C)[C@@H]/2CCC(N)=O.[C-]#N.[Co+3]`, inactive: 0.562%; in that of `CP(=O)(OC12CC3CC(CC(C3)C1)C2)OC12CC3CC(CC(C3)C1)C2`, inactive: 0.394%. The result for `CCOC(=O)c1ccc(NP(C)(=O)Oc2ccc(Cl)cc2)cc1` (configuration not stated) reads inactive: 1.83%; that for `CP(=O)(Nc1ccc(Cl)cc1Cl)Oc1ccccc1` (configuration not stated), inactive: -2.43%; that for `CP(=O)(OCCOc1ccccc1)OCCOc1ccccc1`, inactive: 0.631%. Turning to `Cc1cc(C)cc(OP(C)(=O)Nc2cccc(C(F)(F)F)c2)c1` (configuration not stated), the activity change, negative = inhibition was inactive: -4.11%. For the molecule `COc1ccc(OP(C)(=O)Nc2ccccc2Br)cc1` (configuration not stated), the activity change, negative = inhibition was inactive: -0.0387%. The result for `COc1ccccc1OP(C)(=O)Nc1ccc(C)c(C)c1` (configuration not stated) reads inactive: -0.967%; that for `Cc1c(NP(C)(=O)Oc2ccc(C(C)C)cc2)c(=O)n(-c2ccccc2)n1C` (configuration not stated), inactive: -0.384%. In the case of `CCc1ccc(OP(C)(=O)O)cc1`, the activity change, negative = inhibition was inactive: 1.09%. In the case of `COc1ccccc1OP(C)(=O)Nc1ccc(C)cc1C` (configuration not stated) it was inactive: 0.31%; in that of `CP(=O)(Nc1ccccn1)Oc1ccccc1` (configuration not stated), inactive: 1.69%. In the case of `COc1ccccc1OP(C)(=O)Nc1ccc(Br)cc1` (configuration not stated) it was inactive: -1.46%; in that of `CN(C)CCOC(=O)C(O)(c1ccccc1)C1CCCC1` (configuration not stated), inactive: 2.44%; in that of `COc1ccc(OP(C)(=O)Nc2ccccn2)cc1` (configuration not stated), inactive: -0.211%.
